Laboratory results: publication PMC3655264, “A Large-Scale Conformational Change Couples Membrane Recruitment to Cargo Binding in the AP2 Clathrin Adaptor Complex” (Cell, 2010)
pKd: −log10 of the molar value.

Biological target: fluorescein-labeled TGN38 YxxΦ peptide (ASDYQRL)
Assay: fluorescence polarisation; equilibrium anisotropy titration, without heparin; 20 nM fluorescein peptide, increasing protein; 21°C; 10 mM Tris pH 8.7, 250 mM NaCl (AP2 core, short core) or 10 mM HEPES pH 7.4, 500 mM NaCl (C-μ2); single-site model with linear nonspecific term

pKd: 5.72
Substance: isolated C-terminal domain of μ2 (C-μ2) (from UniProt P84092 1-435) (domain or fragment)
